Structures can show the parent of a compound that is named as a salt.
Tested on: Serotonin transporter (5-HTT)
Assay: ELISA of brain tissue: 5-HTT
Assay type: in vivo, rat
Method: Anxiety-like depression rat model is induced by chronic induction of corticosterone. Five-week-old SD male rats (8/cage) randomly received 0.45% soluble Corticosterone suspension in β-cyclodextrin. The number of rats in each group has been supplemented in part 1.2 of the manuscript method. Specifically described as “The rats were randomly divided into 7 groups, 8 rats in each group, a total of 56 rats. […] The model was established by subcutaneous injection of corticosterone (20 mg⋅kg^−1) for 21 consecutive days. […] The control group and model group were given the same volume of normal saline. Solution preparation methods are described in Supplementary Material S1.1.
The contents of Serotonin transporter (5-HTT, JW.RA1057), dopamine (DA, JW.RA1621), γ-aminobutyric acid (GABA, JW.RA1389) and noradrenaline (NA, JW.RA2154) in the hippocampus were measured by ELISA kit. The tissue samples were added to PBS low-temperature homogenate according to 1:10, and the homogenate was centrifuged at 10,000 rpm at 4 °C […] for 10 min. The supernatant was taken to detect the content of the sample.

Fc1ccc([C@@H]2CCNC[C@H]2COc2ccc3c(c2)OCO3)cc1 [Positive, paroxetine hydrochloride, reference compound]
content of 5-HTT compared with the model group (crocin I low-, medium-, high-dose, gardenia extract, positive drug, P < 0.001): significantly reduced
5-HTT expression level in brain tissue (gardenia extract 0.9 g/kg, positive drug paroxetine hydrochloride 5 mg/kg): 256.14 ± 30.37 ng/mL
content of 5-HTT compared with the control group (positive drug group): no significant difference
